A short description of this assay: Binding affinity to sigma-1 opioid receptor (unknown origin).

`COc1cc2c(cc1OC)CN(CCCCNC(=O)c1cc(C)ccc1OC)CC2`: the affinity, expressed as Ki, was 3.08 µM.

For the origin of these results see ChEMBL document CHEMBL3232965, “The σ2 receptor: a novel protein for the imaging and treatment of cancer” (J Med Chem, 2013).
